Values of other authors, collected in paper PMC4448209, “Vaccine-induced Aβ-specific CD8^+ T cells do not trigger autoimmune neuroinflammation in a murine model of Alzheimer’s disease” (Journal of Neuroinflammation, 2015).

Assays:
BALB/c splenocytes = conditions: BALB/c mice vaccinated with Aβ-encoding DNA, in vitro stimulation with peptide; cited from earlier work
Text: Besides CD4^+ T cell responses to Aβ, vaccination with full-length Aβ1-42 may also activate Aβ-specific CD8^+ T cells. The characterization of such potentially autoreactive CD8^+ T cells has received little attention, presumably because of their expected implication in the direct killing of CNS cells and thus reduced therapeutic interest.

AD patients = conditions: phase 3 studies released summer 2012; 10 (bapineuzumab), 11 (solanezumab); cited from earlier work
Text: Alzheimer’s disease (AD) is a severe neurodegenerative disorder characterized by progressive loss of memory and cognitive functions. Accumulation of amyloid-β peptide (Aβ), both as soluble oligomers and in the form of amyloid plaques, plays a key role in initiating the pathogenic cascade in AD. […] In line with ...

| Substance | IFNγ secretion by splenocytes (BALB/c splenocytes) | improvement of cognitive performance (AD patients) |
| --- | --- | --- |
| Aβ10-20: Aβ-derived peptide used for in vitro stimulation of splenocytes (YEVHHQKLVFF; Amyloid-beta protein 42; UniProt P05067 681-691, looked up, fragment) | not Aβ10-20 |  |
| bapineuzumab: humanized anti-Aβ monoclonal antibody |  | inefficient at improving cognitive performance |
